Literature values, collected in article PMC7073000.
pKd: −log10 of the molar value.

Legend:
Akt PH (Homo sapiens) = Akt PH (Homo sapiens) (UniProt P31749)
[1] = target: Grb7 CaM-binding peptide CaM-binding site peptide (Homo sapiens) (UniProt Q14451)

Calmodulin (from UniProt P0DP23)
pKd (Akt PH (Homo sapiens)): 7.00 | pKd [1]: 8.60
